Several values for one entry are separate records, joined by “and”; a condition that tells them apart may be missing. Identical values can stand only once. Only a part is listed here, and it is no random draw. Some of these compounds have results that are not shown, active ones among them. Results filed as inconclusive are left out. Activity calls are given as the source filed them. The call rests on the fitted dose curve; in most records, active means well fitted inhibition curve with a large enough effect; inconclusive means small, poorly fitted or top-dose-only effect, or another doubt; inactive means no such curve, though single readings can be large or run the other way.
On the % scale 0 is the no-effect control and ±100 the full control effect.

This test deals with DNA polymerase beta (Homo sapiens) (UniProt P06746). Description: qHTS Assay for Inhibitors of DNA Polymerase Beta. Conditions: Pol beta primer extension/strand displacement, fluorescence kinetic; at 114 µM (top of the series). An excerpt: The base excision repair system in human cells is a target for therapeutic modulation of the response to irradiation treatment and DNA-damaging drugs. A key enzyme in this system is the bi-functional DNA polymerase known as DNA polymerase Beta (Pol Beta). The following is a homogeneous kinetic assay to study the primer extension and strand-displacement reaction catalyzed by pol beta.
A stepwise description of the 1536-well assay is shown in next Table. Three microliters of reagents (buffer in column 3 and 4 as negative control and 10 nM Pol beta in columns 1, 2, and 5-48) was dispensed into 1,536-well black solid-bottomed plate. Compounds (23 nL) were transferred via Kalypsys pin tool equipped with 1536-pin array (10 nL slotted pins, V&P Scientific, San Diego, CA). The plates were incubated for 15 min at room temperature, and 1 uL substrate (50 nM final concentration) were added to start the reaction and immediately read at 0 min read on Viewlux reader. The plate were further incubated for 10 min at room temperature, and then read on Viewlux again. Throughout the screen, reagent bottle and all liquid lines were chilled and made light-tight to minimize reagent degradation. All screening operations were performed on a fully integrated robotic system (Kalypsys, San Diego, CA) containing one RX-130 and two RX-90 anthropomorphic robotic arms (Staubli, Duncan, SC). Library plates were screened starting from the lowest and proceeding to the highest concentration, and a double-dipping step of the highest concentration was required to access higher concentrations of compounds. Vehicle-only plates, with DMSO being pin-transferred to the entire column 5-48 compound area, were inserted uniformly at the beginning and the end of each library in order to monitor for and record any shifts in the background, which can be affected by reagent dispensers or loss in enzyme activity overtime. Screening data were corrected, normalized, and concentration-effect relationships were derived by using publicly-available curve fitting algorithms developed in-house (http://ncgc.nih.gov/pub/openhts). A four parameter Hill equation was fitted to the concentration-response data by minimizing the residual error between the modeled and observed responses.
In the case of `CN(C)C1(CNC(=O)c2ccc(Br)cc2)CCCCC1`, the activity change, negative = inhibition is inactive: -0.292%.

As for `COc1cc(C(=O)NCC2(N(C)C)CCCCC2)c([N+](=O)[O-])cc1OC`, the activity change, negative = inhibition was inactive: -3.67%.

With `COc1ccc(Cl)cc1C(=O)NCC1(N(C)C)CCCCC1`, the activity change, negative = inhibition was inactive: -14.3%.

As to `COc1cccc(C(=O)NCC2(N3CCCCC3)CCCCC2)c1`, the activity change, negative = inhibition is inactive: 1.18%.

With `COc1ccc(C(=O)NCC2(N(C)C)CCCCC2)cc1Cl`, the activity change, negative = inhibition was inactive: 15.3%.

`O=C(NCC1(N2CCCCC2)CCCCC1)c1cccc(Cl)c1`: the activity change, negative = inhibition was inactive: 47.4%.

Consider `COc1cccc(C(=O)NCC2(N3CCOCC3)CCCCC2)c1`, for which the activity change, negative = inhibition is inactive: -17.8%.

On to `O=C(OC1CN2CCC1CC2)C(CO)(c1ccccc1)c1ccccc1` (centres undefined), for which the activity change, negative = inhibition was inactive: 0.555%.

`CC(C)COc1ccc(C(=O)NCC2(N(C)C)CCCCC2)cc1`: the activity change, negative = inhibition is inactive: -10.9%.

On to `COc1ccc(Br)c(C(=O)NCC2(N3CCCCC3)CCCCC2)c1`, for which the activity change, negative = inhibition is inactive: -0.277%.

As for `COc1cc(C(=O)NCC2(N(C)C)CCCCC2)cc(OC)c1OC`, the activity change, negative = inhibition was inactive: -27.6%.

Consider `Cc1cccc(C(=O)NCC2(N(C)C)CCCCC2)c1`, for which the activity change, negative = inhibition was inactive: -13.9%.

Consider `CC(C)Oc1ccc(C(=O)NCC2(N(C)C)CCCCC2)cc1`, for which the activity change, negative = inhibition was inactive: -19% and inactive: 10.7%.

`CN(C)c1cccc(C(=O)NCC2(N(C)C)CCCCC2)c1`: the activity change, negative = inhibition is inactive: -7.09%.

As to `O=C(NCC1(N2CCCCC2)CCCCC1)c1cc([N+](=O)[O-])ccc1Cl`, the activity change, negative = inhibition is inactive: 2.66%.

As for `CN1[C@@H]2CC[C@H]1CC(OC(=O)C(O)(c1ccccc1)c1ccccc1)C2` (some centres undefined), the activity change, negative = inhibition was inactive: 13.3%.

For the compound `COc1cc(SC)ccc1C(=O)NCC1(N(C)C)CCCCC1`, the activity change, negative = inhibition is inactive: -5.53%.

With `CN(C)C1(CNC(=O)c2cccc(Cl)c2)CCCCC1`, the activity change, negative = inhibition is inactive: -18.1%.

On to `CCN(CC)CC(C)C(C)OC(=O)C(O)(c1ccccc1)c1ccccc1` (centres undefined), for which the activity change, negative = inhibition is inactive: 27.7%.

With `CC(C)N1C(=O)CC2(CCN(CCOC(=O)C(O)(c3ccccc3)c3ccccc3)CC2)C1=O`, the activity change, negative = inhibition was inactive: 9.39%.

`Cc1ccc(C(=O)NCC2(N3CCCCC3)CCCCC2)cc1`: the activity change, negative = inhibition is inactive: -1.13%.

With `CN(C)C1(CNC(=O)c2ccccc2F)CCCCC1`, the activity change, negative = inhibition is inactive: -0.33%.

Consider `CN(C)C1CCCC1OC(=O)C(O)(c1ccccc1)c1ccccc1` (centres undefined), for which the activity change, negative = inhibition was inactive: -1.41%.

As to `CN(C)c1ccc(C(=O)NCC2(N(C)C)CCCCC2)cc1`, the activity change, negative = inhibition was inactive: -20.2%.

Regarding `CN(C)C1(CNC(=O)c2ccccc2[N+](=O)[O-])CCCCC1`, the activity change, negative = inhibition is inactive: 5.8%.

For the compound `Cc1ccccc1C(=O)NCC1(N2CCCCC2)CCCCC1`, the activity change, negative = inhibition was inactive: 2.55%.

As for `CCCCOc1ccccc1C(=O)NCC1(N(C)C)CCCCC1`, the activity change, negative = inhibition is inactive: 4.78%.

For the compound `O=C(NCC1(N2CCCCC2)CCCCC1)c1cc(F)c(F)cc1Cl`, the activity change, negative = inhibition is inactive: 16.1%.

Regarding `C=CCN1CCN(CCOC(=O)C(O)(c2ccccc2)c2ccccc2)CC1`, the activity change, negative = inhibition is inactive: 0.656%.

On to `CCOc1cccc(C(=O)NCC2(N(C)C)CCCCC2)c1`, for which the activity change, negative = inhibition is inactive: -27.1%.

Turning to `COc1ccc(C(=O)NCC2(N(C)C)CCCCC2)cc1`, the activity change, negative = inhibition was inactive: 6.8%.

For the compound `O=C(NCC1(N2CCCCC2)CCCCC1)c1cccc(Br)c1`, the activity change, negative = inhibition is inactive: 38.9%.

`Cc1cc(C(=O)NCC2(N3CCCCC3)CCCCC2)ccc1[N+](=O)[O-]`: the activity change, negative = inhibition was inactive: 17.9%.

With `CCN1CCCC(OC(=O)C2(O)c3ccccc3C=Cc3ccccc32)C1` (centres undefined), the activity change, negative = inhibition is inactive: 25.6%.
